The results in this text go back to patent publication US12281328B2, “Photoreceptor cells for the treatment of retinal diseases” (Hadasit Medical Research Services and Development Ltd., priority 2017, dated 2025).

The test system of the assay is hESC-derived spheroid bodies (SBs). In words: Quantity and morphology of SBs with addition of HSA to the culture medium. Format: cell-based, human. On the procedure:
SBs were generated under non-adherent conditions (day 0) from cord-feeder-conditioned media culture systems, or from feeder free laminin 521 culture systems, as described above. SBs were cultured in the following medium: NUTRISTEM® minus medium (Biological industries, Beit Haemek, Israel) supplemented with 50 U/ml penicillin and 50 μg/ml streptomycin (Gibco-BRL, Carlsbad, Calif.). In the initial 0 to 6 days of SBs culture (under non-adherent conditions), the medium was supplemented with 10 mM nicotinamide (Sigma, St. Louis, Mo.). It was further supplemented with the addition of the following factors in different combinations: 10 mM nicotinamide (Sigma, St. Louis, Mo.), 3 μM endo-IWR 1 (IWR1e; TOCRIS, a biotechne brand, Minneapolis, Minn.), 20 ng/ml bFGF (PeproTech Inc., Rocky Hill, N.J.), 5 ng/ml IGF1 (R&D Systems Inc., Minneapolis, Minn.) and 3 μM CHIR99021 (CHIR; PeproTech Inc., Rocky Hill, N.J.). Various combinations of the following supplements were also evaluated: 0.5-1% HSA (Albumin 25%, Octapharma, Elersvagen, Sweden), 1% MATRIGEL™ (growth-factor-reduced; BD Biosciences), 1-10 μg/ml Laminin 511 and/or 521 (BioLamina, Sundbyberg, Sweden), 3-10 μg/ml Collagen human (Sigma St. Louis Mo.) for 2 to 8 weeks.
The addition of HSA to the culture medium of the SBs was also analyzed. FIG. 36 provides an illustration of the timeline and agents that were analyzed. The quantity of SBs that were generated was increased with the addition of HSA.

Where [1] appears, read: addition of HSA to SB culture medium.

As for “HSA: human serum albumin, 0.5-1% (Albumin 25%, Octapharma), supplement of the SB culture medium”, where the note is “NIC+IWR1e+HSA vs NIC+IWR1e, FIG. 37A, 37B”, the “size and compaction of SBs” value was “larger and more compacted”. In addition, under setting [1], the “quantity of SBs generated” value is “increased”; the “yield of retinal progenitor cells and efficiency of differentiation” value is “improves the yield of retinal progenitor cells and also the efficiency of differentiation”.
